Like-named read-outs stand apart in the source and are kept apart here.
Key:
P-selectin [1] = target: T1, P-selectin (Homo sapiens, UniProt P16109); assay: P-selectin inhibition assay; format: binding; settings: at 3 mM
T1 sequence (P16109 42-830): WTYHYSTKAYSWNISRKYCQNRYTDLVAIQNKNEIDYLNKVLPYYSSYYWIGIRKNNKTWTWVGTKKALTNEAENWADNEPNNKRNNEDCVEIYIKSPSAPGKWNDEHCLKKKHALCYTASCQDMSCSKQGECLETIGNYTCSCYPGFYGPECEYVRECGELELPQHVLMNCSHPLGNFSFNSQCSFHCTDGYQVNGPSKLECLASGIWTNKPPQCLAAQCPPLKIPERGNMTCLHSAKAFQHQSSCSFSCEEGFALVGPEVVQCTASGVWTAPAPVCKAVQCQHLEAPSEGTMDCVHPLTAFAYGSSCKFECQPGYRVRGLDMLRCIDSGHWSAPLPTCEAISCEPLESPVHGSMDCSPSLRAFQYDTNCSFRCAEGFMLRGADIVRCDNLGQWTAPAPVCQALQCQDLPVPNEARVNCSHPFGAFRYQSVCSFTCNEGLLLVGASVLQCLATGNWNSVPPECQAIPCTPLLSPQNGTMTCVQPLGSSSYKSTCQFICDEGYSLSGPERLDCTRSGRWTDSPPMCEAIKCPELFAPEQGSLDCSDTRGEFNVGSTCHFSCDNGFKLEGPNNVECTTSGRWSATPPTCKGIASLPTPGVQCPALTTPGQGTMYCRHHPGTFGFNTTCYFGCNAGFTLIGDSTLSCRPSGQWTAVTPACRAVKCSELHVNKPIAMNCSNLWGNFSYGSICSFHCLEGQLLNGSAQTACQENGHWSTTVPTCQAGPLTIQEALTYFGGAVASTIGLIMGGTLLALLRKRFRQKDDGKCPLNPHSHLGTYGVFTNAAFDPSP

L-selectin = target: T2, L-selectin (Homo sapiens, UniProt P14151); assay: L-selectin inhibition assay; format: binding; settings: at 3 mM
T2 sequence (P14151 39-372): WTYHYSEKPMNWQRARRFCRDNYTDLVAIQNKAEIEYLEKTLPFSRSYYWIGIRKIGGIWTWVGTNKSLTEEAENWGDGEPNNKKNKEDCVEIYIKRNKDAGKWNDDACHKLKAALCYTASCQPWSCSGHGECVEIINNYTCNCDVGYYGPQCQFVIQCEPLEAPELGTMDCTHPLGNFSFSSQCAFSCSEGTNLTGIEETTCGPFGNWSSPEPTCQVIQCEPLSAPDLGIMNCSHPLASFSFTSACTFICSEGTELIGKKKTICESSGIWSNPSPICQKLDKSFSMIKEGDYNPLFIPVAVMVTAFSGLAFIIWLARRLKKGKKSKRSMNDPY

E-selectin [2] = target: T3, E-selectin (Homo sapiens, UniProt P16581); settings: literature value; cited from earlier work
T3 sequence (P16581 22-610): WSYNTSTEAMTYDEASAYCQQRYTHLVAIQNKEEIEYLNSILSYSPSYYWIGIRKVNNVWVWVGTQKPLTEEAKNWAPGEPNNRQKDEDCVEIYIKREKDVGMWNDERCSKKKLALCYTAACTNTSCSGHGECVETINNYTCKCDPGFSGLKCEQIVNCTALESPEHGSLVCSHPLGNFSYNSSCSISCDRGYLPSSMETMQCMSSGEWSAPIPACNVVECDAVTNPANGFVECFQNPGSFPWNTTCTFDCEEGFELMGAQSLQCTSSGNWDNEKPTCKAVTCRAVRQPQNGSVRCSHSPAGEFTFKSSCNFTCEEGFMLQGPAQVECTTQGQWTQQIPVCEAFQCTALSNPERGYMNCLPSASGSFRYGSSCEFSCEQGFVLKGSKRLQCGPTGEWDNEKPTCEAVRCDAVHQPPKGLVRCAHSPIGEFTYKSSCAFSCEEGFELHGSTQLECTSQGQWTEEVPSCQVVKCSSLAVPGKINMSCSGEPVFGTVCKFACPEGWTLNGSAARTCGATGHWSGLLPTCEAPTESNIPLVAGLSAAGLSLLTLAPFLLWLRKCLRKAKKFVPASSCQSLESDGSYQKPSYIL

P-selectin [3] = target: T1, P-selectin; settings: literature value; cited from earlier work
E-selectin [4] = target: T3, E-selectin; assay: E-selectin inhibition assay (Weitz-Schmidt et al.); format: binding; settings: SLex reference value listed with mimetics 2-6

NeuAcα2→3Galβ1→4(Fucα1→3)GlcNAc [SLex]
inhibition of P-selectin (P-selectin [1]): 0% | inhibition of L-selectin (L-selectin): 50% | IC50 (E-selectin [2]): 500 µM | IC50 (P-selectin [3]): > 3000 µM | IC50 (E-selectin [4]): 500 µM

— patent US5837862A, “Sialyl Lewis X mimetics incorporating mannopeptides” (The Scripps Research Institute, priority 1996, dated 1998)
